Experimental findings from ChEMBL document CHEMBL6087482, “Discovery of INCB159020, an Orally Bioavailable KRAS G12D Inhibitor” (J Med Chem, 2025) are described below.

Active and inactive are the calls of the source. No cut-off for these calls is given here.

The target of assay [1] is GTPase HRas (Homo sapiens) (UniProt P01112). Put plainly: Binding affinity to wildtype HRAS (unknown origin) assessed as GDP-GTP exchange upto 10 uM preincubated for 4 hrs followed by GppNHp and SOS1 addition and measured after 2 hrs by fluorescence based plate reader analysis. Conditions: time 6.0 hrs.
Assay [2] deals with GTPase NRas (Homo sapiens) (UniProt P01111). Put plainly: Binding affinity to wildtype NRAS (unknown origin) assessed as GDP-GTP exchange upto 10 uM preincubated for 4 hrs followed by GppNHp and SOS1 addition and measured after 2 hrs by fluorescence based plate reader analysis. Conditions: time 6.0 hrs.

For `Cc1cnc(-c2nc3c(F)c(-c4cccc(Cl)c4C)c(CCC#N)cc3c3c2cc([C@@H](C)N2CCOCC2=O)n3[C@H]2[C@H]3CN[C@@H]2C3)cn1`, the outcome in assay [1] and in assay [2] was inactive.
